{
  "sequences": {"note": "The chains behind the UniProt entries cited, without tags or fusion partners.", "UniProt P10632, whole entry": "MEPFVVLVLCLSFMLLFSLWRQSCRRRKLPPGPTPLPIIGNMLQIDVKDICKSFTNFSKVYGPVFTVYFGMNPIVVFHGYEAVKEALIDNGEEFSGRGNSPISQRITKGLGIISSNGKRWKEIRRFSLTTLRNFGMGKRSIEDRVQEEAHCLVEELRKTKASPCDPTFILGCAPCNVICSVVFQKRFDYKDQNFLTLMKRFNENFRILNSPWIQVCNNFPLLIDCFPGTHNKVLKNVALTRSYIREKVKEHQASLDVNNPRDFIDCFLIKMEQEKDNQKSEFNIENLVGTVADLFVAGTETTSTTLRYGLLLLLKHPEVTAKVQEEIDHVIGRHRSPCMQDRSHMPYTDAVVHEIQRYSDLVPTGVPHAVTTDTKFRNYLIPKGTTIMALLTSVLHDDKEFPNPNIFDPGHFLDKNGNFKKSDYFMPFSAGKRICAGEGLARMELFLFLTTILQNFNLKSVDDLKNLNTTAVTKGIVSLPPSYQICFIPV", "UniProt P10632, whole entry R139K/K399R": "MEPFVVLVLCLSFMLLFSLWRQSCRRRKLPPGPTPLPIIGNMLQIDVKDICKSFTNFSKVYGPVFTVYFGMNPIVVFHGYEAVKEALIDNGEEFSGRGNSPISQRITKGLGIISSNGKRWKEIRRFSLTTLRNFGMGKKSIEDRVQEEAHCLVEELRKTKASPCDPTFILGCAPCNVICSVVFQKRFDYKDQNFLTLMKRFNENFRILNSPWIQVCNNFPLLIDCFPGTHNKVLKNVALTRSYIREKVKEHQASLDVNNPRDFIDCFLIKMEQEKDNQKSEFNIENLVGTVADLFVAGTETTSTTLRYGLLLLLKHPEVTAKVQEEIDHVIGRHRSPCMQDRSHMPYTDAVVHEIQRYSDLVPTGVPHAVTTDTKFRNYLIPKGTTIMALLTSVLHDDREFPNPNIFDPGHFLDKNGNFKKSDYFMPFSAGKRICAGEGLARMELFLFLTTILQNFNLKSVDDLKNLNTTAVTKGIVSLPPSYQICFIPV"},
  "source": "paper PMC3159548",
  "about": "(Biochemical pharmacology, 2011)",
  "key": {"CYP2C8.1": {"biological_target": "CYP2C8.1 (Homo sapiens, UniProt P10632)", "details": "for kcat: 1:2:1"}, "CYP2C8.3 [1]": {"biological_target": "T1, CYP2C8.3 (Homo sapiens, UniProt P10632, K399R/R139K)", "assay": "Equilibrium spectral binding of ligands and redox cofactors to purified CYP2C8.3", "details": "CYP2C8.3 in comparison to CYP2C8.1"}, "CYP2C8": {"test_system": "CYP2C8", "details": "excess of cytochrome b5 (up to 10:1)"}, "CYP2C8.3 [2]": {"biological_target": "T1, CYP2C8.3", "details": "for kcat: 1:2:1"}, "CYP2C8.3 [3]": {"biological_target": "T1, CYP2C8.3", "details": "absence of cytochrome b5 in the reconstitution system; CPR:CYP2C8 2:1"}},
  "note": "Like-named read-outs stand apart in the source and are kept apart here.",
  "data": [
    {"molecule": "CN(CCOc1ccc(CC2SC(=O)NC2=O)cc1)c1ccccn1", "note": "(stereo not shown) [RG, rosiglitazone]", "values": [
      {"measurement": "substrate inhibition", "setting": "CYP2C8.1; CYP2C8.1", "value": "negligible"},
      {"measurement": "kcat", "setting": "CYP2C8.1; RG N-de-methylation", "value": "0.38 ± 0.02", "unit": "nmol nmol P450^−1 min^−1"},
      {"measurement": "kcat", "setting": "CYP2C8.1; RG p-hydroxylation", "value": "0.42 ± 0.03", "unit": "nmol nmol P450^−1 min^−1"},
      {"measurement": "% change in Bmax, first binding event", "setting": "CYP2C8.3 [1]", "value": "+5%"},
      {"measurement": "% change in Bmax, second binding event", "setting": "CYP2C8.3 [1]", "value": "+258%"},
      {"measurement": "inhibition of CYP-activity by cytochrome b5", "setting": "CYP2C8", "value": "strong inhibition"},
      {"measurement": "fold higher Clint (kcat/Km) for CYP2C8.3 compared to CYP2C8.1", "setting": "CYP2C8.3 [2]; DEAQ formation, p-hydroxy and N-de-methyl RG, PAC 6α-hydroxylation", "value": "up to 3 fold"},
      {"measurement": "kcat", "setting": "CYP2C8.3 [2]; RG N-de-methylation", "value": "2.7 ± 0.1 (***) nmol nmol P450^−1 min^−1"},
      {"measurement": "kcat", "setting": "CYP2C8.3 [2]; RG p-hydroxylation", "value": "3.0 ± 0.1 (***) nmol nmol P450^−1 min^−1"},
      {"measurement": "activity of CYP2C8.3 compared to CYP2C8.1", "setting": "CYP2C8.3 [3]", "value": "less active"}
    ]}
  ]
}
